# Yeast mating assay B: variants of the scFv Ab-14

Binding partner: SARS-CoV-2 spike HR2 peptide, sequence PDVDLGDISGINAS.

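The parent was found by panning a naive human phage display library on the peptide. This is the validation round: designs drawn from the data on random variants, tested in the same kind of assay. Group labels follow the data file (En: ensemble of fine-tuned language models; GP: Gaussian process model; HC: hill climbing; Gen: genetic algorithm; Gibbs: Gibbs sampling; a sequence that several methods proposed may carry one label only). The scFvs were displayed on barcoded MATa yeast, the peptide on MATalpha yeast. Mating (16 h, 30 °C) was followed by selection of diploids and sequencing of their barcodes. Scores were corrected for input abundance and mapped to Kd with protein pairs of known affinity run in the same pool. Mating was done six times.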

The variants keep the heavy chain, the linker and the frameworks of Ab-14 (scFv order VH, a (GGGGS)3 linker, VL).
VH: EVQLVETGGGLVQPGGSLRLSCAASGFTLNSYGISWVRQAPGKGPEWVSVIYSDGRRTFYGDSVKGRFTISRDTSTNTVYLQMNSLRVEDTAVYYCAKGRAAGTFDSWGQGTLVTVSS
VL: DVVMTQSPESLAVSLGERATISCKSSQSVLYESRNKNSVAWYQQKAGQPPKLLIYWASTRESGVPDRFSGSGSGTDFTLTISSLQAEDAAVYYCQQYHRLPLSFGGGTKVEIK

Variants are written as CDR1, CDR2 and CDR3 of the light chain (limits as in the source). Parent: KSSQSVLYESRNKNSVA, WASTRES, QQYHRLPLS. This list holds designs with more than six substitutions. Values are log10 of the apparent Kd in nM; lower means stronger binding. Averages over replicates are reported, and they cover detected replicates only. "nd" means that the variant was in the library but no mating with the target was seen in any replicate; the authors take this as a sign of poor binding, and no number exists. The authors' rule: three or more of the six replicates give a measured affinity, fewer mean a poor binder.

The variant SIDSAVAYGLQNKKNIA / EEERADR / QQYAHLPLM [En_Gibbs] showed 1.72 (6 of 6 replicates). For KMAQGWPYESRNKNSVA / NASYREM / QQYHRLPLS [GP_Gibbs], the assay gave 0.72 (6 of 6 replicates). The variant KLSQSVLMESRMVNNVA / EASQREE / QQYHRLPLS [GP_Gibbs] gave 0.19 (6 of 6 replicates). For HLGLATMLEAQVRNSVA / NNSTRES / QQYDRLPLS [En_Gen], the assay gave 0.10 (6 of 6 replicates). The variant HMNTLDVGVSDHYNSVA / EQRAAGI / QQYFRLPLS [En_Gibbs] gave 1.69 (6 of 6 replicates).

The variant TLTQSVGMLSHNKNSVA / DLSTRGS / QQYHRLPLS [En_HC] gave 0.10 (6 of 6 replicates). The variant KLRDEADGWNRNEWNIA / DADHRGA / QQYSHLPLC [En_Gibbs] showed 3.92 (2 of 6 replicates). For HFAYPWQSGYVSKQNVA / NASTVMT / QHYNRLPLS [En_Gibbs], the assay gave 1.29 (6 of 6 replicates). For KLSYSVMLESRNKNAVA / EASTRMS / QDYHRLPLS [GP_Gibbs], the assay gave 0.40 (6 of 6 replicates). With MISQLMNMGTFAINSVA / QAEIRNM / QQYDRLPLA [En_Gen] the result was nd (0 of 6 replicates).

With KISMLINQTFQMSNNVA / EMVTRYK / QQYNRLPLS [En_Gen] the result was 1.55 (6 of 6 replicates). With KISQLVNFLGKNKNSVA / QMSTRED / QQYDRLPLS [En_HC] the result was 0.79 (6 of 6 replicates). The variant MLGDVAFGLSRKHNSVA / DNSTREA / QQYDRLPLS [En_Gen] gave 1.76 (6 of 6 replicates). With LLKGMVEGQLYRQNAIA / NAEERDR / QQYNHLPLS [En_Gibbs] the result was 0.37 (6 of 6 replicates). The variant IISANNVMQGSNWDAVA / QGEIANN / QQYARLPLS [En_Gibbs] showed 1.54 (5 of 6 replicates).

With KISSLTSYESVNKNSVA / EMSTRPS / QSYHRLPLS [En_HC] the result was 1.15 (6 of 6 replicates). With HVSEMIMAQSKMRNSVA / ENSTREA / QQYDRLPLS [En_HC] the result was 2.13 (5 of 6 replicates). The variant MISQLMNMGQFAINSVA / QAETRCN / QQYDRLPLE [En_Gen] gave 2.88 (4 of 6 replicates). For RINVFQNMSTQGNNSIA / GAEQKVH / QQYMRLPLY [En_Gibbs], the assay gave 2.23 (5 of 6 replicates). For KIGQLFMLEQYHKNNVA / GTETRVR / QHYHRLPLS [En_Gen], the assay gave 2.78 (4 of 6 replicates).

With TLVDWIQGGDWAKKNVA / DEQTRMV / QQYYRLPLS [En_Gibbs] the result was 0.88 (6 of 6 replicates). The variant KLQQSMLYESRWKNSVA / QASQREV / QQYHRLPLS [GP_Gibbs] gave 0.58 (6 of 6 replicates). For MISQVLNTLYMTGNNVA / DLQEREE / QQYFRLPLS [En_Gen], the assay gave 1.95 (5 of 6 replicates). With KLSQSVRMESFNKNSVA / ENSTREE / QDYHRLPLS [En_HC] the result was 1.79 (3 of 6 replicates). For KLRQSCEYEDRNKNSVA / NASQRCS / QQYHRLPLS [GP_Gibbs], the assay gave 0.33 (6 of 6 replicates).

The variant KISQMFNVGTKATNSLA / EMNTRGM / QDYHRLPLS [En_HC] gave 0.83 (6 of 6 replicates). The variant KISQMFYYESINKNNVA / QKSTREE / QDYHRLPLS [En_HC] showed -0.19 (6 of 6 replicates). The variant TISQVLNTLTKVGNNVA / DLAEREQ / QQYFRLPLS [En_Gen] gave 1.12 (6 of 6 replicates). With ALSQDGFQQSGMRDSIA / HSDQRLA / QQYYHLPLA [En_Gibbs] the result was 0.19 (6 of 6 replicates). With IVSQLMLWGMHAKNSIA / EAEKRLN / QQYHHLPLI [En_Gen] the result was 1.78 (6 of 6 replicates).

The variant TLYGLSNSMSKNKNNVA / EMTTREK / QQYDRLPLV [En_Gen] showed 0.48 (6 of 6 replicates). With KNWISHLGESRNKNAVA / NASTREE / QQYHRLPLS [GP_Gibbs] the result was 0.48 (6 of 6 replicates). For MISQLMNMGTFAINSVA / QAELRND / QQYDRLPLT [En_Gen], the assay gave 2.14 (5 of 6 replicates). With KLSMETYGLTGHASSIA / HEEIRWA / QQYHKLPLI [En_Gibbs] the result was 1.25 (4 of 6 replicates). With TLYGLSNSMSINKDSVA / EMTTRED / QQYDRLPLI [En_Gen] the result was 2.23 (1 of 6 replicates).

The variant KLGASVGYESRNKSRVA / DNSTRES / QQYDRLPLS [En_HC] gave 3.04 (6 of 6 replicates). The variant TIGGTLMYGMRNRSNVA / EVSERLN / QQYDRLPLF [En_Gen] gave 1.23 (6 of 6 replicates). With QIYQAMHTLSQAKDNVA / DVNERGQ / QQYFRLPLS [En_Gen] the result was 0.10 (6 of 6 replicates). The variant MIQINQSNYDGMRSAIA / DTNLARM / QQYYHLPLM [En_Gibbs] showed 0.49 (6 of 6 replicates). The variant RLTEHYSEKKAADASVA / DASTRND / QQYHRLPLF [En_Gibbs] gave -0.13 (6 of 6 replicates).

For KIGGVTNGISRSKNSVA / EQSTRED / QQYNRLPLI [En_HC], the assay gave 0.99 (6 of 6 replicates). For HSNGSLRMDERNKNHVA / DTDVRES / QQYMRLPLV [En_Gibbs], the assay gave -0.31 (6 of 6 replicates). The variant KLSQFTGHLSVEKNNVA / EMETREN / QQYDRLPLS [En_Gen] gave 0.57 (5 of 6 replicates). The variant MVTQMAMLGMTNKRSVA / NAEMREN / QQYHRLPLI [En_Gen] gave 1.11 (6 of 6 replicates). With TISTLMRYESSLKNAIA / NAQTRES / QQYHRLPIS [En_HC] the result was 0.96 (6 of 6 replicates).

The variant VMFGGLYWGNIEHQAIA / NVDMREK / QQYHRLPLQ [En_Gibbs] showed 1.93 (6 of 6 replicates). With KLEWQQLYWSRNSNSVA / NASTREE / QQYHRLPLS [GP_Gibbs] the result was -0.33 (6 of 6 replicates). With SVTNETDGNGLKWNSVA / DAAELMT / QQYFRLPLT [En_Gibbs] the result was 0.64 (6 of 6 replicates). For HIDWYNRGETLKKDDIA / NATHREQ / QQYFHLPLV [En_Gibbs], the assay gave 0.62 (6 of 6 replicates). For SIGGFMKSLSAHINSVA / DMTNRED / QQYDRLPLS [En_Gen], the assay gave 0.03 (6 of 6 replicates).

With KLNDDFQVNERNNGSVA / DAIISEA / QQYARLPLI [En_Gibbs] the result was 0.86 (6 of 6 replicates). The variant KLSPSVNGQSRNKNSVA / HASTREQ / QDYHRLPLS [GP_Gibbs] showed 0.75 (6 of 6 replicates).

The closing 6 entries, repeated:

| CDR-L1 | CDR-L2 | CDR-L3 | group | log10 Kd (nM), mean | detected |
|---|---|---|---|---|---|
| KLEWQQLYWSRNSNSVA | NASTREE | QQYHRLPLS | GP_Gibbs | -0.33 | 6/6 |
| SVTNETDGNGLKWNSVA | DAAELMT | QQYFRLPLT | En_Gibbs | 0.64 | 6/6 |
| HIDWYNRGETLKKDDIA | NATHREQ | QQYFHLPLV | En_Gibbs | 0.62 | 6/6 |
| SIGGFMKSLSAHINSVA | DMTNRED | QQYDRLPLS | En_Gen | 0.03 | 6/6 |
| KLNDDFQVNERNNGSVA | DAIISEA | QQYARLPLI | En_Gibbs | 0.86 | 6/6 |
| KLSPSVNGQSRNKNSVA | HASTREQ | QDYHRLPLS | GP_Gibbs | 0.75 | 6/6 |

The parent sequence was in this pool as ten entries: three were never detected, three once, and four in most replicates, with averages from 0.34 to 2.37. Empty control strains, which show no peptide, gave a signal in 4% of pairings with all light chain designs; the median was 2.64 and 95% of these signals were weaker than 1.59. No background was subtracted. Values of this round are not directly comparable with the first-round values of the same sequences.

From the AlphaSeq antibody data of Li et al. 2023 (doi:10.1038/s41467-023-39022-2), copy in the FLAb collection.